This passage reports growth inhibition results from PubChem BioAssay AID705 (SRMLSC, 2007).

The list shows a part of the results, in another mix than the full data. Calls of active or inactive are those of the source.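 The calls were made as follows: active = growth inhibition above 25% in both replicates, a cutoff set 3 SD above the mean; inconclusive = above 25% in only one replicate; inactive = the rest.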

A short description of the experiment: S. cerevisiae growth inhibition in permissive medium (OD615), pilot counter-assay for S. cerevisiae lifespan shortening project, permissive growth control (AID 705). Conditions: OD615, 24 h, at 10 µM, hits give high values. Put shortly:
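Material: engineered DeaD yeast; Compound: one dose 10 µM, DMSO 0.25% final; Detection: absorbance (optical density) at 615 nm; Buffer or medium: permissive raffinose/galactose medium; Timing: 24 h exposure, 30 °C.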
`CP(=O)(Nc1ccc2c(c1)OCCO2)Oc1ccccc1` (stereo not given): the growth inhibition was inactive: -3.08%. To `CP(=O)(Oc1ccccc1)N1CCOC1=O` (stereo not given) belongs inactive: 0.025%. As for `CP(=O)(NC(=O)Nc1ccccc1)Oc1ccccc1` (stereo not given), the growth inhibition was inactive: -6.03%. Turning to `Cc1ccc(NP(C)(=O)Oc2ccccc2)c(C)c1` (stereo not given), the growth inhibition is inactive: -8.25%. For `Cc1ccc(C)c(NP(C)(=O)Oc2ccccc2)c1` (stereo not given), the growth inhibition is inactive: -11.4%.
